# Results reported in US11135306B2, “Antibody-drug conjugates” (CHO Pharma Inc., priority 2016, dated 2021).
# Test system: BT474 cells
# Assay: Cytotoxicity assay (CellTiter-Glo) in BT474 cells
# Format: cell-based
# Settings: BT474, FIG. 9, tested concentrations
substance,measurement,value
"TRZ: IgG1κ anti-HER2 trastuzumab TRZ; Herceptin, Roche (native Herceptin)",cytotoxicity (in words),minimal cytotoxicity
